Source: patent US12576073B2, “Antiarrhythmic formulation” (InCarda Therapeutics, Inc., priority 2019, dated 2026)
Values after ≈ are worked out from the molar mass of the structure shown.

Assays:
physchem = format: physicochemical
[1] = Solubility of flecainide in D/L-lactic acid media; format: physicochemical; settings: 20% w/v HPβCD in water with DL-lactic acid, aqueous with cosolvent or surfactant or cyclodextrin, thermodynamic from solid, pH 6.4
Procedure: D-lactic acid, L-lactic acid, or DL-lactic acid was slowly added portionwise to the suspension while stirring. The system was left to equilibrate for 30 minutes, and the pH was determined. The pH was then adjusted to 5.2-6 with NaOH if necessary. After addition of NaOH, the system was again left to equilibrate for 30 minutes before pH was measured. After the desired pH was achieved, the suspension was stirred (1000 rpm) at ambient temperature for 48 hours. At 24 hours and 48 hours of stirring, samples of each solution were centrifuged at 10000 rpm for 2 minutes and filtered with a 0.45 μm membrane to obtain supernatant for pH determination and HPLC analysis. Solids from each sample were also characterized by X-ray powder diffraction (XRPD) analysis.

SMILES	solubility (physchem; pH 5.4, aqueous with cosolvent or surfactant or cyclodextrin, Solubility (mg/mL))	solubility (physchem; pH 5.5)	solubility at 48 h [1]
O=C(NCC1CCCCN1)c1cc(OCC(F)(F)F)ccc1OCC(F)(F)F (stereo not drawn) [flecainide acetate]	71.5 mg/mL	71.1 mg/mL	–
O=C(NCC1CCCCN1)c1cc(OCC(F)(F)F)ccc1OCC(F)(F)F (stereo not drawn) [flecainide]	–	–	71.3 mg/mL (≈ 172 mM)
